Experimental findings from US7176316B2, “Amino-piperidine derivatives” (Hoffmann-La Roche Inc., priority 2003, dated 2007) are described below.

The chains behind the UniProt entries cited, without tags or fusion partners. Residues count along the entry.
UniProt P48067, 1-652 isoform 3: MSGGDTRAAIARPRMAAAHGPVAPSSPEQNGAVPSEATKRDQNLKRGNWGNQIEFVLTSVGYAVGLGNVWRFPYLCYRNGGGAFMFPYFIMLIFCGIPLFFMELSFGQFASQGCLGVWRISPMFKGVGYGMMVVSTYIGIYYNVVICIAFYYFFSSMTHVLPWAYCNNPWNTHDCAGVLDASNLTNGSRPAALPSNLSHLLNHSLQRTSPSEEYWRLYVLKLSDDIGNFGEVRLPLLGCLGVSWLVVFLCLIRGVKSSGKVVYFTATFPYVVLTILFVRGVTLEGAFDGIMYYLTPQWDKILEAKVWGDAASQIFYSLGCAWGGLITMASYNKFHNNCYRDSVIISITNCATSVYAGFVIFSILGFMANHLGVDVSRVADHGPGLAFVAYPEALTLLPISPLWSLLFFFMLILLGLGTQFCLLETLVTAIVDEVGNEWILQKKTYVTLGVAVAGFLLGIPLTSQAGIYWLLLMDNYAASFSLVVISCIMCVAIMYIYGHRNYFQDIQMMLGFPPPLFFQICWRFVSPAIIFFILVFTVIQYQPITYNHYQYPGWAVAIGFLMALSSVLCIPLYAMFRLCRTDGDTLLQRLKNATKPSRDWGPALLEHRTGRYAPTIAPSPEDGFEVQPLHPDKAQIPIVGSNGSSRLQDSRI

This is a selection: effects in other tests are not listed, and their absence says nothing.

For the test, the target named is hGlyT-1b (Homo sapiens, UniProt P48067). Put plainly: Glycine uptake inhibition assay (hGlyT-1b), [3H]-glycine uptake in transfected CHO cells. The following applies: read-out: IC50 (μM) at GlyT-1; CHO cells stably transfected with hGlyT-1b cDNA; [3H]-glycine 60 nM and 25 μM non-radioactive glycine; 30 min at 22–24° C.

What is called IC50 is the point on the concentration scale where inhibition reaches its midpoint. With `O=C(c1cccc(C(F)(F)F)c1)N(c1ccc(Cl)cc1)C1CCN([C@@H]2CCCC[C@@H]2c2ccccc2)CC1` (racemic), the IC50 stood at 0.098 µM.
